{"sequences": {"note": "Chains of the proteins cited; added tags and fusions are not shown.", "UniProt P31424, whole entry": "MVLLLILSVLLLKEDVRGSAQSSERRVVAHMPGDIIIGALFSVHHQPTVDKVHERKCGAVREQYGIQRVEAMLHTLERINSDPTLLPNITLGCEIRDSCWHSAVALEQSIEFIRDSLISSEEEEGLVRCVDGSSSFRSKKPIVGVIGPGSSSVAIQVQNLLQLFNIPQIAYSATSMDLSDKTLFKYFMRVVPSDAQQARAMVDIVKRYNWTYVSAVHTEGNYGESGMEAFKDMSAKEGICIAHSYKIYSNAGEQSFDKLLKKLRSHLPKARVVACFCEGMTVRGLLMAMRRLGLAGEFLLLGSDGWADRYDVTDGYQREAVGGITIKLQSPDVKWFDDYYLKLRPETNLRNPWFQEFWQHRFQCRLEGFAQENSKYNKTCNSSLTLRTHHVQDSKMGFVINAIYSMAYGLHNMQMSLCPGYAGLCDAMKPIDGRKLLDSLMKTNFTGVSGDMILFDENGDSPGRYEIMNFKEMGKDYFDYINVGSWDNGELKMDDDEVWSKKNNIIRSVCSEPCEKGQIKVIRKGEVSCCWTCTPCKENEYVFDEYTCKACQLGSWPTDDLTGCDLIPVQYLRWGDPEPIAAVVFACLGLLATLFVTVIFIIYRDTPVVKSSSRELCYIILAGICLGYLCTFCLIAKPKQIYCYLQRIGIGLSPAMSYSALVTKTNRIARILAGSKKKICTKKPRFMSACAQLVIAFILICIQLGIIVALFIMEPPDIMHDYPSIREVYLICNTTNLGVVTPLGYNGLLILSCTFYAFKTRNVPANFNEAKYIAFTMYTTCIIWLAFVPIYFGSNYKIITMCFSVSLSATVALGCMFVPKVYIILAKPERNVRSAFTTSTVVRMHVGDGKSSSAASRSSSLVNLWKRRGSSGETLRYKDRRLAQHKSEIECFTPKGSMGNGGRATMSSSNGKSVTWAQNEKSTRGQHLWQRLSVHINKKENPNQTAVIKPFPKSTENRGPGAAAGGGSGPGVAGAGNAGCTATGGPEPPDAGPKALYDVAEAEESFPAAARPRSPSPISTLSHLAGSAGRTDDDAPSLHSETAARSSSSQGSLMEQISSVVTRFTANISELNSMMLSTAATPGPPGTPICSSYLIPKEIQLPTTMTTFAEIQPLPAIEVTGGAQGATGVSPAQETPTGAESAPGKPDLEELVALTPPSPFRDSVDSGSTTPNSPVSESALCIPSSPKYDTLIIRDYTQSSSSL", "UniProt P41594, whole entry": "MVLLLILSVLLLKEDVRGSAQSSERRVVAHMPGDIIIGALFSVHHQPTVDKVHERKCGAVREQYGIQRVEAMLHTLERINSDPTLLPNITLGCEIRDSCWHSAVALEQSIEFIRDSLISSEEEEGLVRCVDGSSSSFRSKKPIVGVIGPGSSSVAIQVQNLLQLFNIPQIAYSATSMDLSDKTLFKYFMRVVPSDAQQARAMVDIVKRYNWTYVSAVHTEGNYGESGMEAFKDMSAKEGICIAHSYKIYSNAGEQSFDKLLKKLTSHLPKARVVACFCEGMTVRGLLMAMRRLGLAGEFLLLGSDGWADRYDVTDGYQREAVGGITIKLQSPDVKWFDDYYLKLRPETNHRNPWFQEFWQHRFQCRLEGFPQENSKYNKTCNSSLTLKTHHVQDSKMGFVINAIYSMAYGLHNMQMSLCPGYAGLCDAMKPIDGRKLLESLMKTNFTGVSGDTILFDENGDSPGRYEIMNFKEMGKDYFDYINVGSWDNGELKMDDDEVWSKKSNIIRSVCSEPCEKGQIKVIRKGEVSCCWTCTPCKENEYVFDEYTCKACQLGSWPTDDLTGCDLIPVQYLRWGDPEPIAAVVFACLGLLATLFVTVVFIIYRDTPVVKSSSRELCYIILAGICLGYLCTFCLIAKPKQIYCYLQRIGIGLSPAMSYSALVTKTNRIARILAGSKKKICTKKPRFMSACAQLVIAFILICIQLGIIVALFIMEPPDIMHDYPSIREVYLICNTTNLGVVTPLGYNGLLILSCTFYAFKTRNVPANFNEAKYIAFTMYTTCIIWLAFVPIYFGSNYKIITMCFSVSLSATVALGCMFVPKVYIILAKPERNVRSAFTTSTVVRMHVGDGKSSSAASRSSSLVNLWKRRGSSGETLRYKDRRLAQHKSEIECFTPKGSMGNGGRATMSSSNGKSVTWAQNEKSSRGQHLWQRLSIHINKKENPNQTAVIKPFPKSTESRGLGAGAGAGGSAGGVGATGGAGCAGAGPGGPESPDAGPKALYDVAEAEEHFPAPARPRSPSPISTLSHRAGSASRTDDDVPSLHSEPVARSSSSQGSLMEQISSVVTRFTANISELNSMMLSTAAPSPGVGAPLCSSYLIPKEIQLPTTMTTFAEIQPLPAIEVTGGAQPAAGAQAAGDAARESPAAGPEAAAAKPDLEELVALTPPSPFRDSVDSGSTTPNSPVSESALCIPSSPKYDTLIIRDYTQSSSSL"}, "source": "ChEMBL document CHEMBL2429814", "about": "(J Med Chem, 2013)", "key": {"[1]": {"target": "Metabotropic glutamate receptor 5 (Rattus norvegicus, UniProt P31424)", "assay": "Positive allosteric modulation of rat mGluR5 stably expressed in CHO cells assessed as Ca2+ flux by FLIPR assay", "type": "functional, cell-based"}, "[2]": {"target": "Metabotropic glutamate receptor 5 (Homo sapiens, UniProt P41594)"}}, "data": [{"compound": "N#Cc1cccc(C(=O)Nc2cc(-c3ccccc3)nn2-c2ccccc2)c1", "values": [{"measurement": "EC50", "setting": "[1]", "value": 98, "unit": "nM"}, {"measurement": "EC50", "setting": "[2]", "value": 27, "unit": "nM"}]}]}
